# Measured values taken from US6752986B2, “Composition and methods for affecting metallocorrinoid uptake” (The Cleveland Clinic Foundation, priority 2001, dated 2004).
# Tests used:
# NIH-OVCAR-3 cells = assay: Flow cytometric analysis of Annexin V positive cells (% apoptosis); assay type: cell-based, human; settings: NIH-OVCAR-3, IL-2 250 U/mL with NO-Cbl, 48 hrs
# Procedure: A flow cytometric analysis of Annexin V positive cells was performed to assess the % apoptosis (programmed cell death) of NIH-OVCAR-3 cells treated with NO-Cbl, alone and in combination with IFN-β. This is illustrated in FIG. 4 The ID25 was used for both NO-Cbl (10 uM) and IFN-β (20 U/mL) for 48 hrs.
# TCII receptor = assay: Western blot of TCII receptor in NIH-OVCAR-3 cell extracts; assay type: cell-based, human; settings: NIH-OVCAR-3 cells, IFN β 200 u/ml at 4 and 16 hrs
# Procedure: To assess the effect of IFNβ on TCII-R expression, a western blot analysis was performed on extracts from NIH-OVCAR-3 cells (ovarian carcinoma) as shown in FIG. 3. Lane 1 is untreated. Lanes 2 and 3 are IFN β treated (200 u/ml) at 4 and 16 hrs respectively. Lanes 4 and 5 are liver and kidney extracts respectively, and serve as a positive control, since TCII-R is abundant in these tissues. […] The co-delivery of IFN-β and nitrosylcobalamin appears to result in synergistic destruction of tumor cells as a result of increased TCII receptor expression or activity.
# Cells in culture were treated with vehicle (untreated) or with IFN-β (500 U/ml) for 4 and 16 hrs, washed twice in PBS, harvested by scraping, and lysed in buffer containing 100 mM saline-TRIS. Total cell extracts were homogenized prior to loading. Protein amounts in clarified cell extracts were determined using Bio-Rad protein assay reagent. Equivalent amounts of protein (100 μg) were loaded on 10% polyacrylamide SDS separating gels and electrophoresis was performed using glycine-SDS buffer. Following electrophoresis, gels were equilibrated in transfer buffer 30 min at 25° C., and proteins transferred to nitrocellulose membrane.
# All steps were performed at 25° C. […] Excess detection reagent was drained and the membrane was placed protein side down on plastic wrap and exposed to film for empirically determined lengths of time.
# TCII-R [1] = assay: Immunohistochemical analysis of TCII-R in NIH-OVCAR-3 tumors grown in nude mice; assay type: in vivo; settings: NIH-OVCAR-3 tumors in nude mice, human IFN-β 10^5 units daily for three days, versus PBS control
# From the text: The control group received PBS and the treated group received human IFN-β 10^5 units daily for three days. Tumors were harvested, paraffin embedded, and sections were stained with rabbit polyclonal anti-TCII-R antibody, (provided by Dr. Seetharam's lab, Medical College of Wisconsin). FIG. 5 depicts these treatments. The left panel is an untreated tumor whereas the right panel is a tumor from a mouse that received IFN-β. […] The increased expression of the TCII receptor allows for increased uptake of NO-Cbl, consistent with the synergy observed in the SRB and Annexin V assays upon NO-Cbl co-treatment with IFN-β.
# (§1) In-vivo IFN-β treatment of nude mice inoculated with tumors (e.g. WM9—human melanoma or NIH-OVCAR-3—ovarian carcinoma) and Immunohistochemical analysis: Nude mice (n=2 each group), were inoculated with tumors (e.g. WM9—human melanoma or NIH-OVCAR-3—ovarian carcinoma), subcutaneously (s.c.), one tumor on each flank. The tumors were grown until 3-5 mm in diameter. Human IFN-β (10^5 units) was administered s.c. for three days to the treatment animals. On day four, animals were sacrificed and tumors were fixed in formalin and paraffin embedded. The sections were analyzed using standard immunohistochemical techniques. Anti-TCII-R was used as the primary antibody.
# TCII-R [2] = assay: Immunohistochemical analysis of TCII-R in WM9 tumors grown in nude mice; assay type: in vivo; settings: human IFN-β 10^5 units daily for three days, versus PBS control
# From the text: The control group received PBS and the treated group received human IFN-β 10^5 units daily for three days. Tumors were harvested, paraffin embedded, and sections were stained with rabbit polyclonal anti-TCII-R antibody, (provided by Dr. Seetharam's lab, Medical College of Wisconsin). FIG. 8 depicts these treatments. The upper two panels are untreated tumors whereas the lower panels are tumors from mice that received IFN-β.
# as §1
# [3] = test system: NIH-OVCAR-3 ovarian carcinoma; assay: SRB anti-proliferative cell survival assay, NIH-OVCAR-3; assay type: cell-based, human; settings: concentration used in the Annexin V assay for 48 hrs
# Procedure: FIG. 1 illustrates NIH-OVCAR-3 ovarian carcinoma evaluated in accordance with the present invention after 72-hrs growth. […] Single agent and combination drug effects were assessed to determine whether IFN-β enhanced NO-Cbl activity. […] These matters are shown in the median effect analysis shown in FIG. 2 (similar to isobologram analysis) indicated synergy (a combination index <1) between NO-Cbl and IFN-β at all 3 doses tested.
# Cells (2×10^3) were seeded in 96-well plates. Data points represent mean of eight replicates. (n=8). A control plate was fixed 4 hr after seeding (to allow cells to attach) to determine the initial seeding density (Aini). This was defined as 0% growth. To the wells of the seeded experimental plate, IFN-β was added and incubation continued for 3-5 days. Untreated cell controls were included. Growth obtained with this control was defined as 100% (Afin). To determine cell number, cells were fixed with 10% trichloroacetic acid at 4° C. for 1 h. They were stained with 0.4% sulforhodamine B prepared in 1% acetic acid at 25° C. for 1 h (27). The wells were washed with 1% acetic acid. Bound dye was eluted with 100 μl of 10 mM Tris-HCl, ph 10.5 and quantitated in a microplate reader at 570 nm. Growth in IFN-β-treated wells (experimental=exp) was expressed as a percentage of untreated control growth (mean±SEM).
# %Control growth=100%×(Aexp−Aini)/(Afin−Aini) […]
Molecule,effect on NO-Cbl induced apoptosis (Annexin V positive cells) (NIH-OVCAR-3 cells),"expression of the TCII receptor (monomer 62 kDa, dimer 124 kDa) (TCII receptor)","expression of the TCII receptor (monomer 62 kDa, dimer 124 kDa) (TCII receptor; listed as IFN β)",expression of TCII-R (anti-TCII-R staining of tumor sections) (TCII-R [1]),expression of TCII-R (anti-TCII-R staining of tumor sections) (TCII-R [2]),ID25 [3] [U/mL]
interleukin-2 [IL-2],protective against the effects of NO-Cbl,–,–,–,–,–
"interferon-β (protein, UniProt P01574 22-187, looked up, cytokine; human IFN-β) Interferon beta: MSYNLLGFLQRSSNFQCQKLLWQLNGRLEYCLKDRMNFDIPEEIKQLQQFQKEDAALTIYEMLQNIFAIFRQDSSSTGWNETIVENLLANVYHQINHLKTVLEEKLEKEDFTRGKLMSSLHLKRYYGRILHYLKAKEYSHCAWTIVRVEILRNFYFINRLTGYLRN",–,increased expression of the TCII-R,increase in the expression of the TCII receptor,increased expression of TCII-R,increased expression of TCII-R,20
